Results on one substance are retold here after patent publication US6063370A, “Macromolecular complexes for drug delivery” (The Board of Trustees of the University of Illinois, priority 1998, dated 2000).

The nature of this data set: Solubility of insulin and macromolecular insulin complex under various conditions.

With insulin, the Solubility result by setting is: (pH = 3) “Soluble”; (pH = 7) “Insoluble”; (pH = 7, phosphate buffer) “Insoluble”.
